# Measured values: US8066985B2, “Reovirus for the treatment of cellular proliferative disorders” (Oncolytics Biotech Inc., priority 1999, dated 2011)
# B1: Interferon β: known to induce PKR expression (protein, UniProt P01574 22-187, looked up)
# Interferon beta: MSYNLLGFLQRSSNFQCQKLLWQLNGRLEYCLKDRMNFDIPEEIKQLQQFQKEDAALTIYEMLQNIFAIFRQDSSSTGWNETIVENLLANVYHQINHLKTVLEEKLEKEDFTRGKLMSSLHLKRYYGRILHYLKAKEYSHCAWTIVRVEILRNFYFINRLTGYLRN
# System: Ras-transformed cells
# Assay: Interferon β effect on reovirus replication
# Type: cell-based
molecule,measurement,value
B1,reovirus replication,significantly reduce reovirus replication
